Read-outs that look alike come from different tables or passages of the source.
Columns and labels:
P2X7 [1] = molecular target: T1, P2X7 (Homo sapiens (Human), UniProt Q99572); assay: Ca2+ flux (FLIPR) in 1321N1 cells expressing recombinant human P2X7 channel; assay type: cell-based; conditions: 250 μM BzATP, Calcium-4 dye
Method: (§1) 1321N1 cells expressing the recombinant human, rat or mouse P2X7 channel was cultured in HyQ DME/(HyClone/Dulbecco's Modified Eagle Medium) high glucose supplemented with 10% Fetal Bovine Serum (FBS) and appropriate selection marker. Cells were seeded at a density of 25000 cells/well (96-well clear bottom black walled plates) in 100 μl volume/well. On the day of the experiment, cell plates were washed with assay buffer, containing (in mM): 130 NaCl, 2 KCl, 1 CaCl2, 1 MgCl2, 10 HEPES, 5 glucose; pH 7.40 and 300 mOs. After the wash, cells were loaded with the Calcium-4 dye (Molecular Device) and incubated in the dark for 60 minutes. Test compounds were prepared at 250× the test concentration in neat DMSO. Intermediate 96-well compound plates were prepared by transferring 1.2 μL of the compound into 300 μL of assay buffer. A further 3× dilution occurred when transferring 50 μL/well of the compound plate to 100 μL/well in the cell plate. Cells were incubated with test compounds and dye for 30 minutes. Calcium dye fluorescence was monitored in FLIPR as the cells were challenged by adding 50 μL/well of BzATP (final concentration is 250 μM BzATP (human and rat) or 600 μM (mouse)). The fluorescence change was measured 180 seconds after adding the agonist.

Protein sequences, listed by entry. Tags and fused reporters are not part of them. Lines headed by an entry give the natural chain unless they say otherwise; changes in a name come on top.
UniProt Q99572: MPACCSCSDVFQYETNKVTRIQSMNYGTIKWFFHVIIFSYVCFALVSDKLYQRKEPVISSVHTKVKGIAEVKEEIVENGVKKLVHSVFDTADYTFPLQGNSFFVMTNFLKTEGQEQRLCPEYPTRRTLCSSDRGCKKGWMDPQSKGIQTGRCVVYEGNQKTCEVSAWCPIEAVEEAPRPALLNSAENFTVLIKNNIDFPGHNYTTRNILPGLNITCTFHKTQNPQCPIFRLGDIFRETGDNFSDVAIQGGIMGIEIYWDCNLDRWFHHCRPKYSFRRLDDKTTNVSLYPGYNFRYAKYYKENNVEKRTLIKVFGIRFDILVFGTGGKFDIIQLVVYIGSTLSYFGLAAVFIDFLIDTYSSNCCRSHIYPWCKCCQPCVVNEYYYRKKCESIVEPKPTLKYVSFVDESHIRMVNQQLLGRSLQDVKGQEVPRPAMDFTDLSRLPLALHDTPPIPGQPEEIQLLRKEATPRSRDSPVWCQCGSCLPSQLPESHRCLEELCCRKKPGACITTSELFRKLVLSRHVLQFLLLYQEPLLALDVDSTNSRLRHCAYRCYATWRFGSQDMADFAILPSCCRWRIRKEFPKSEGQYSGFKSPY
UniProt Q64663: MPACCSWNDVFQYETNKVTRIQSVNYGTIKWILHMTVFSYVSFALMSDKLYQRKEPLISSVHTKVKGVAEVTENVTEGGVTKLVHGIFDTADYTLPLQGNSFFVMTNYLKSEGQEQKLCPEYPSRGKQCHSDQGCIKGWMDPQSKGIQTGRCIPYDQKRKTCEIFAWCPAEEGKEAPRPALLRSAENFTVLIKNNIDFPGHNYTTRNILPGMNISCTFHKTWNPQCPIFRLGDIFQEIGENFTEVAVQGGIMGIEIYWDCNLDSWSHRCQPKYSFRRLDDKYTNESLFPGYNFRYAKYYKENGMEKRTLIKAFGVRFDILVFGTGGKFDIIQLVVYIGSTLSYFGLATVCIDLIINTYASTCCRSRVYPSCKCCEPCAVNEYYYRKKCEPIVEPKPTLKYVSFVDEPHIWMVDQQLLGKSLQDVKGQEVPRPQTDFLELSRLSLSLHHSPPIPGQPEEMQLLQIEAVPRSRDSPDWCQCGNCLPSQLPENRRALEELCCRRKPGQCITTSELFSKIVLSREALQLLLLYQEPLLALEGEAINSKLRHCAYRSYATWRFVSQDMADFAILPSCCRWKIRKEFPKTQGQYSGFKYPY

rat P2X7 [2] = molecular target: T2, rat P2X7 (Rattus norvegicus (Rat), UniProt Q64663); assay: Ca2+ flux (FLIPR) in 1321N1 cells expressing recombinant rat P2X7 channel; assay type: cell-based; conditions: 250 μM BzATP, Calcium-4 dye
Method: as §1

P2X7 [3] = molecular target: T1, P2X7; assay: Radioligand binding, human P2X7-1321N1 cell membranes, tracer tritiated A-804598
Method: (§2) human or rat P2X7-1321 N1 cells were collected and frozen @ −80° C. On the day of the experiment, cell membrane preparations were made according to standard published methods. The total assay volume was 100 μl:10 μl compound (10×)+(b) 40 μl tracer (2.5×)+50 μl membrane (2×). The tracer used for the assay was tritiated A-804598. The compound can be prepared as described in the literature. […] The assay was terminated by filtration (GF/B filters pre-soaked with 0.3% PEI) and washed with washing buffer (Tris-HCl 50 mM). The IC50 generated in the binding assay was corrected for tracer concentration and affinity of the tracer to derive at the affinity (Ki) of the test compounds.

rat P2X7 [4] = molecular target: T2, rat P2X7; assay: Radioligand binding, rat P2X7-1321N1 cell membranes, tracer tritiated A-804598
Method: as §2

P2X7 [5] = molecular target: T1, P2X7; assay: P2X7 antagonism in human whole blood (IL-1β release, ELISA); assay type: cell-based; conditions: IL-1β release in human blood, LPS 30 ng/ml + Bz-ATP 1 mM
Method: Human blood was collected using a blood donor program. […] Cells were incubated for an additional 1.5 hours. […] In Table 2, when the data cell has been left blank, it is intended to mean that the compound was not tested in that assay.

[6] = human P2X7-1321N1 membranes, 1 hour at 4° C., IC50 corrected for tracer concentration and affinity
[7] = rat P2X7-1321N1 membranes, 1 hour at 4° C., IC50 corrected for tracer concentration and affinity

SMILES	IC50 (P2X7 [1]) [nM]	IC50 (rat P2X7 [2]) [nM]	Ki (P2X7 [3]; [6]) [nM]	Ki (rat P2X7 [4]) [nM]	IC50 (P2X7 [5]) [nM]	Ki (P2X7 [3]) [nM]	Ki (rat P2X7 [4]; [7]) [nM]
Cc1nc2c(c(-c3ccn[nH]3)n1)CC(C)N(C(=O)c1cccc(C(F)(F)F)c1Cl)C2 (stereo not shown) [Example 56, 7-{[2-Chloro-3-(trifluoromethyl)phenyl]carbonyl}-2,6-dimethyl-4-(1H-pyrazol-5-yl)-5,6,7,8-tetrahydropyrido[3,4-d]pyrimidine]	14.3	12.4	37.2				
Cc1nc2c(c(-c3ccn[nH]3)n1)CC(C)N(C(=O)c1ccc(F)c(C(F)(F)F)c1Cl)C2 (stereo not shown) [Example 64, (2-chloro-4-fluoro-3-(trifluoromethyl)phenyl)(2,6-dimethyl-4-(1H-pyrazol-5-yl)-5,6-dihydropyrido[3,4-d]pyrimidin-7(8H)-yl)methanone]	16.4	13.3	79.4				
CC(C)c1nc2c(c(-c3ccn[nH]3)n1)CC(C)N(C(=O)c1cccc(C(F)(F)F)c1Cl)C2 (stereo not shown) [Example 101, (2-chloro-3-(trifluoromethyl)phenyl)(2-isopropyl-6-methyl-4-(1H-pyrazol-5-yl)-5,6-dihydropyrido[3,4-d]pyrimidin-7(8H)-yl)methanone]	82.4	23	100				
CCc1nc2c(c(-c3ccn[nH]3)n1)CC(C)N(C(=O)c1cccc(C(F)(F)F)c1Cl)C2 (stereo not shown) [Example 98, (2-chloro-3-(trifluoromethyl)phenyl)(2-ethyl-6-methyl-4-(1H-pyrazol-5-yl)-5,6-dihydropyrido[3,4-d]pyrimidin-7(8H)-yl)methanone]	25.5	14.9	55				
Cc1nc2c(c(-c3ccn[nH]3)n1)C[C@@H](C)N(C(=O)c1ccc(Cl)cc1Cl)C2 (single isomer, unassigned) [Example 84, (R*)-(2,4-dichlorophenyl)(2,6-dimethyl-4-(1H-pyrazol-5-yl)-5,6-dihydropyrido[3,4-d]pyrimidin-7(8H)-yl)methanone]				1.9			
Cc1nc2c(c(-n3nccn3)n1)CCN(C(=O)c1cccc(C(F)(F)F)c1Cl)C2 [Example 47, 7-{[2-Chloro-3-(trifluoromethyl)phenyl]carbonyl}-2-methyl-4-(2H-1,2,3-triazol-2-yl)-5,6,7,8-tetrahydropyrido[3,4-d]pyrimidine]	15.8		39.8		> 10000		
Cc1nc2c(c(-c3ccn[nH]3)n1)C[C@H](C)N(C(=O)c1ccc(Cl)cc1F)C2 (single isomer, unassigned) [Example 89, (S*)-(4-chloro-2-fluorophenyl)(2,6-dimethyl-4-(1H-pyrazol-5-yl)-5,6-dihydropyrido[3,4-d]pyrimidin-7(8H)-yl)methanone]		15.9		1			
Cc1nc2c(c(-c3ccn[nH]3)n1)C[C@@H](C)N(C(=O)c1cccc(C(F)(F)F)c1Cl)C2 (single isomer, unassigned) [Example 58, (6R*)-7-{[2-Chloro-3-(trifluoromethyl)phenyl]carbonyl}-2,6-dimethyl-4-(1H-pyrazol-5-yl)-5,6,7,8-tetrahydropyrido[3,4-d]pyrimidine]				2.8	160	15.8	
O=C(c1cccc(Cl)c1Cl)N1CCc2c(ncnc2-c2nccs2)C1 [Example 38, 7-[(2,3-Dichlorophenyl)carbonyl]-4-(1,3-thiazol-2-yl)-5,6,7,8-tetrahydropyrido[3,4-d]pyrimidine]		1380					45.7
Cc1nc2c(c(-c3ccn[nH]3)n1)CC(C)N(C(=O)c1cccc(C(F)(F)F)c1F)C2 (stereo not shown) [Example 74, (2,6-dimethyl-4-(1H-pyrazol-5-yl)-5,6-dihydropyrido[3,4-d]pyrimidin-7(8H)-yl)(2-fluoro-3-(trifluoromethyl)phenyl)methanone]	10		25.1				
O=C(c1cccc(C(F)(F)F)c1Cl)N1CCc2c(ncnc2-c2nccs2)C1 [Example 37, 7-{[2-Chloro-3-(trifluoromethyl)phenyl]carbonyl}-4-(1,3-thiazol-2-yl)-5,6,7,8-tetrahydropyrido[3,4-d]pyrimidine]		649					25.1
Cc1nc2c(c(-c3ccn[nH]3)n1)CC(C)N(C(=O)c1ccc(Cl)cc1Cl)C2 (stereo not shown) [Example 83, (2,4-dichlorophenyl)(2,6-dimethyl-4-(1H-pyrazol-5-yl)-5,6-dihydropyrido[3,4-d]pyrimidin-7(8H)-yl)methanone]	1.7	14.9	31.6				
CC1c2ncnc(-c3ccn[nH]3)c2CCN1C(=O)c1ccc(Cl)c(F)c1Cl (stereo not shown) [Example 121]	10.6	128	20				
Cc1nc2c(c(-c3ccn[nH]3)n1)C[C@@H](C)N(C(=O)c1ccc(Cl)c(F)c1Cl)C2 (single isomer, unassigned) [Example 71]	2.9	2.4	12.6				
CC1c2ncnc(-c3ccn[nH]3)c2CCN1C(=O)c1ccc(F)c(C(F)(F)F)c1Cl (stereo not shown) [Example 115, (2-chloro-4-fluoro-3-(trifluoromethyl)phenyl)(8-methyl-4-(1H-pyrazol-5-yl)-5,6-dihydropyrido[3,4-d]pyrimidin-7(8H)-yl)methanone]	13.9	14.2	31.6				
CC1c2ncnc(-c3ccn[nH]3)c2CCN1C(=O)c1ccc(F)c(Cl)c1Cl (stereo not shown) [Example 118, (2,3-dichloro-4-fluorophenyl)(8-methyl-4-(1H-pyrazol-5-yl)-5,6-dihydropyrido[3,4-d]pyrimidin-7(8H)-yl)methanone]	5.7		12.6				
Cc1c(C(=O)N2CCc3c(ncnc3-c3ccn[nH]3)C2)cccc1C(F)(F)F [Example 10, 7-{[2-Methyl-3-(trifluoromethyl)phenyl]carbonyl}-4-(1H-pyrazol-5-yl)-5,6,7,8-tetrahydropyrido[3,4-d]pyrimidine]	46.1	1010	30.9		2000		21.9
CC1c2ncnc(-c3ccn[nH]3)c2CCN1C(=O)c1cccc(C(F)(F)F)c1Cl (stereo not shown) [Example 112, (2-chloro-3-(trifluoromethyl)phenyl)(8-methyl-4-(1H-pyrazol-5-yl)-5,6-dihydropyrido[3,4-d]pyrimidin-7(8H)-yl)methanone]	12.9		25.1				
C[C@@H]1c2ncnc(-c3ccn[nH]3)c2CCN1C(=O)c1ccc(F)c(C(F)(F)F)c1Cl (single isomer, unassigned) [Example 116, (R*)-(2-chloro-4-fluoro-3-(trifluoromethyl)phenyl)(8-methyl-4-(1H-pyrazol-5-yl)-5,6-dihydropyrido[3,4-d]pyrimidin-7(8H)-yl)methanone]	5.9	8.6				31.6	
Nc1nc2c(c(-c3ccn[nH]3)n1)CCN(C(=O)c1cccc(C(F)(F)F)c1Cl)C2 [Example 55, 7-{[2-Chloro-3-(trifluoromethyl)phenyl]carbonyl}-4-(1H-pyrazol-5-yl)-5,6,7,8-tetrahydropyrido[3,4-d]pyrimidin-2-amine]	45.9		17.8				
Cc1nc2c(c(-c3ccn[nH]3)n1)CC(C)N(C(=O)c1ccc(F)c(Cl)c1Cl)C2 (stereo not shown) [Example 80, (2,3-dichloro-4-fluorophenyl)(2,6-dimethyl-4-(1H-pyrazol-5-yl)-5,6-dihydropyrido[3,4-d]pyrimidin-7(8H)-yl)methanone]	25.1	20	25.1				
CCc1nc2c(c(-c3ccn[nH]3)n1)CC(C)N(C(=O)c1ccc(Cl)c(F)c1Cl)C2 (stereo not shown) [Example 104, (2,4-dichloro-3-fluorophenyl)(2-ethyl-6-methyl-4-(1H-pyrazol-5-yl)-5,6-dihydropyrido[3,4-d]pyrimidin-7(8H)-yl)methanone]	19.1		39.8				

Source: patent publication US9096596B2 (Janssen Pharmaceutica NV, priority 2013, dated 2015)
